# Bioassay records from PubChem BioAssay.
# Hits are enriched below; roughly 16% of the tested compounds scored in any of these assays.
# TDP1 cell CPT: DT40-hTDP1 cell growth loss with CPT; Potency, µM (top dose mostly 46.2 µM), for the others: at the highest dose activity change, negative = growth inhibition, usual class: inhibitors; 420,000 compounds, 12% hits; chicken DT40 Tdp1-/-;hTDP1 cells + 20 nM CPT, ATP luminescence, 48 h; note: potency is the fitted concentration of half-maximal effect; % is set by controls: 0 for no effect and ±100 for the full control effect; nearly all actives have a fitted effect of over 55% in size
#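 Cell growth measured by CellTiter-Glo luminescence after a minimum 48 h, 37 C compound exposure with 20 nM CPT in Tdp1-knockout DT40 cells stably expressing hTDP1, seeded 400/well; qHTS titration format.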
# miR-21 reporter: miR-21 reporter, rising signal. 340,000 tested, under 10 active. Potency, µM (highest dose often 38.3 µM), for the others: at the highest dose reporter change, positive = more light. HeLa miR-21 FLuc reporter, luciferase, 48 h. AID 2288; active = well fitted rising curve with a large enough effect; inconclusive = small, poorly fitted or top-dose-only effect; inactive = no such curve, though single readings can be large or run the other way;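 further: % of control where 0% means no effect; miR-21 action dims this reporter so a rising signal means less miR-21 action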
#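 HeLa miR-21-FLuc reporter line, endogenous miR-21; 2000 cells/well in DMEM/10% FBS; compound titration up to ~40uM final, 48 h, 37 degree Celsius; luciferase detection reagent, 15 min lysis, CCD luminescence.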
# DT40 TDP1 no CPT: qHTS for Inhibitors of human tyrosyl-DNA phosphodiesterase 1 (TDP1): qHTS in cells in absence of CPT; DT40 Tdp1-/- hTDP1 cells, no CPT, ATP luminescence, 48 h; 420,000 compounds, 15% hits; AID 686978, 2013; Potency, µM (titrated, usually from 46.2 µM), inactives show at the top dose activity change, negative = growth inhibition, actives largely listed as inhibitors; note: potency is the fitted concentration of half-maximal effect; % is set by controls: 0 for no effect and ±100 for the full control effect; nearly all actives have a fitted effect of over 55% in size
#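 No-CPT arm: Tdp1-/-;hTDP1 DT40 cells (400/well) plus compounds, incubated ≥48 hr at 37 °C. Readout CellTiter-Glo luminescence.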
# uPA generation: blocks generation of uPA at the cell surface | Potency, µM (titrated, usually from 38.3 µM), inactives show top-dose activity change, negative = inhibition, most hits filed as inhibitors | AID 540303 | cell surface uPA generation assay, qHTS | 330,000 compounds, 0.31% hits; active = well fitted inhibition curve with a large enough effect; inconclusive = small, poorly fitted or top-dose-only effect; inactive = no such curve, though single readings can be large or run the other way; tested in mouse RAW 264.7 cells; note: potency is the fitted concentration of half-maximal effect; % is set by controls: 0 for no effect and ±100 for the full control effect; nearly all actives have a fitted effect of over 55% in size
# TDP1 block: inhibitors of human tyrosyl-DNA phosphodiesterase TDP1 | Potency, µM (doses to about 130 µM), inactives show at the top dose activity change, negative = inhibition, usual class: inhibitors | recombinant TDP1, AlphaScreen DNA substrate cleavage | AID 485290 | 350,000 compounds, 0.28% hits; note: potency is the fitted concentration of half-maximal effect; % is set by controls: 0 for no effect and ±100 for the full control effect; nearly all actives have a fitted effect of over 40% in size
#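 AlphaScreen read-out: signal falls as enzyme removes the 3' tyrosine-FITC from a 5'-biotinylated DNA oligo (15 nM, 5 min, RT). Enzyme was E. coli-made recombinant Tdp1 at 1 nM, exposed to compound for 15 min beforehand; beads 10 ug/ml, 10 min.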
# * marks the source's active call; other numbers are inactive results; ? = inconclusive; nt = no result given; [ ] = remark or other dose. Unless noted, calls come from the whole dose curve; as a rule, active = well fitted curve in the direction sought with a large enough effect; inconclusive = small, poorly fitted or top-dose-only effect, or another doubt; inactive = no such curve, though single readings can be large; an effect the other way counts as inactive or inconclusive.
# Below each compound – TDP1 block	uPA generation	DT40 TDP1 no CPT	miR-21 reporter	TDP1 cell CPT
COc1cc(C2CC(=O)Nc3cc4c(cc32)OCO4)cc(OC)c1O (stereo not drawn)
    -6%[12.3 µM]	nt	?	-11%	3%
CCOc1ccccc1C1CC(=O)Nc2cc(OC)c(OC)cc21 (stereo not drawn)
    6%	-4%	?	-1%	?
CCOC(=O)c1[nH]c2c(OCC)nc(OCC)nc2c1Br
    nt	-1%	?	nt	-19%
CN(CC1COc2ccccc2O1)C(=O)CSc1ncccn1 (stereo not drawn)
    1%	1%	-10%	nt	-13%
Cc1ccc(-c2nn(C)c(=O)c3ccccc23)cc1S(=O)(=O)NCCCN(C)C
    -1%	nt	0%	-2%	1%
Cc1ccc(-c2nn(C)c(=O)c3ccccc23)cc1S(=O)(=O)N1CCOCC1
    -8%	nt	?	-4%	11µM*
CCOC(=O)N1CCN(S(=O)(=O)c2cc(-c3nn4c(C)nnc4c4ccccc34)ccc2C)CC1
    3%	2%	26µM*	1%	?
Cc1ccc(-c2nn3c(C)nnc3c3ccccc23)cc1S(=O)(=O)N(C)CCO
    4%	-1%	?	-12%	?
Cc1ccc(-c2nn3c(-c4ccco4)nnc3c3ccccc23)cc1S(=O)(=O)N1CCOCC1
    6%	nt	nt	0%	nt
Cc1ccc(-c2nn(C)c(=O)c3ccccc23)cc1S(=O)(=O)N1CCCC1
    4%	?	?	0%	15µM*
COc1ccc(C2=NC(=O)NC2c2ccc(OC)cc2)cc1 (stereo not drawn)
    8%	6%	-23%	-2%	-8%
Cc1ccc2oc(-c3ccccc3)c(O)c(=O)c2c1
    4%	nt	?	nt	?
O=C(O)c1c(-c2ccccc2)oc2ccc(O)cc12
    nt	-2%	-2%	-2%	15%
COc1cccc(-c2oc3ccc(C)cc3c(=O)c2O)c1
    3%	nt	13µM*	-2%	21µM*
Cc1ccc2oc(-c3ccccc3)c(C(=O)O)c(=O)c2c1
    9%	-4%	23µM*	5%	?

# Shown with each value named: entries from further up.
Cc1ccc(-c2nn(C)c(=O)c3ccccc23)cc1S(=O)(=O)N1CCCC1
- TDP1 block: 4%
- uPA generation: ?
- DT40 TDP1 no CPT: ?
- miR-21 reporter: 0%
- TDP1 cell CPT: 15µM*

COc1ccc(C2=NC(=O)NC2c2ccc(OC)cc2)cc1 (stereo not drawn)
- TDP1 block: 8%
- uPA generation: 6%
- DT40 TDP1 no CPT: -23%
- miR-21 reporter: -2%
- TDP1 cell CPT: -8%

# (listing goes on)
# Below each compound – TDP1 block	uPA generation	DT40 TDP1 no CPT	miR-21 reporter	TDP1 cell CPT
O=c1c(O)c(-c2ccccc2)oc2ccccc12
    -9%[56.1 µM]	?	9.2µM*	nt	?
Cc1ccc(-c2oc3ccccc3c(=O)c2O)cc1
    -2%	-19%	16µM*	-20%	26µM*
COc1ccccc1CNCC(=O)N1CC(=O)Nc2ccccc21
    nt	-7%	-11%	-4%	-19%
COc1cc(C2N(c3ccc(F)cc3)C(=O)C3CCCN32)cc(OC)c1OC (stereo not drawn)
    -1%	3%	-1%	1%	25%
CN1C(=O)c2ccccc2N(C)C1c1cccs1 (stereo not drawn)
    1%	-4%	-22%	-6%	-3%
Nc1nnc(-c2ccncc2)s1
    0%	nt	4%	-1%	4%
c1cc(-c2sc(-c3ccncc3)c(-c3ccncc3)c2-c2ccncc2)ccn1
    nt	10%	10µM*	10%	?
COc1ccc(CN(C(=O)c2nsc(Cl)c2Cl)C(C(=O)NC2CCCCC2)c2ccc(OC)cc2)cc1 (stereo not drawn)
    -1%	-26%	23µM*	8%	5.8µM*
COc1ccc(CN(C(=O)c2nsc(Cl)c2Cl)C(C(=O)NC2CCCC2)c2ccc(C)cc2)cc1 (stereo not drawn)
    3%	-14%	15µM*	11%	12µM*
COc1ccc(CN(C(=O)c2snc(C(N)=O)c2N)C(C(=O)NC2CCCC2)c2ccc(OC)c(OC)c2)cc1 (stereo not drawn)
    nt	-4%	?	0%	?
CC(=O)Nc1ccc(S(=O)(=O)NC2(C(F)(F)F)C(=O)Nc3c2c(=O)[nH]c(=O)n3-c2ccc(C)c(C)c2)cc1 (stereo not drawn)
    6%	nt	-1%	0%	2%
Cc1cc(-n2c(=O)[nH]c(=O)n(C)c2=O)ccc1Oc1ccc(S(=O)(=O)C(F)(F)F)cc1
    nt	nt	17µM*	nt	?
COc1ccc(CN(C)CC(=O)N2CCc3ccccc3C2)cc1
    -3%	0%	?	-5%	-18%
Cc1cc(C(F)(F)F)c(C#N)c(SCC(=O)Nc2nc3ccccc3s2)n1
    -1%	-4%	18µM*	-1%	?
N#Cc1c(C(F)(F)F)cc(-c2ccccc2)nc1SCC(=O)Nc1sc2c(c1C#N)CCC2
    -2%	4%	10µM*	0%	13µM*

# (continued)
# Below each compound – TDP1 block	uPA generation	DT40 TDP1 no CPT	miR-21 reporter	TDP1 cell CPT
N#Cc1ccc(-c2cccnc2)nc1SCC(=O)Nc1sc2c(c1C#N)CCC2
    -4%	nt	-24%	-16%	-25%
CCOC(=O)C1CC(CN2C(=O)c3ccccc3C2=O)OC1=O (stereo not drawn)
    nt	1%	-34%	nt	0%
Cc1cc(OCc2n[nH]c(=S)n2-c2ccccc2)ccc1Cl
    nt	0%	-8%	0%	4%
CCN=c1scc(-c2ccc3c(c2)NC(=O)CO3)n1N=C1CCCC1
    11%	-2%	8.2µM*	?	?
CCCCN=c1scc(-c2ccc3c(c2)NC(=O)CO3)n1N=C1CCCC1
    10%	nt	23µM*	28%	13µM*
N#CC(CCc1ccccn1)c1ccccc1 (stereo not drawn)
    nt	-3%	-8%	nt	4%
OC(CNCC(c1ccc(Cl)cc1Cl)c1c[nH]c2ccccc12)c1ccccc1 (stereo not drawn)
    8%	1%	13µM*	?	?
CC(O)CNc1nc2c(c(=O)n(C)c(=O)n2C)n1C/C=C/c1ccccc1 (stereo not drawn)
    3%	-7%	9.2µM*	14%	8.2µM*
Cn1c(=O)c2c(nc(NCCCO)n2C/C=C/c2ccccc2)n(C)c1=O
    9%	5%	18µM*	4%	18µM*
CCCCC(OC(=O)CN1C(=O)COc2ccccc21)C(=O)NC1CCCCC1 (stereo not drawn)
    nt	1%	16µM*	-3%	-1%
S=C(Cc1cccnc1)N1CCOCC1
    1%	-5%	?	-5%	?
O=C(C[C@@H]1C/C=C\C[C@@H](Cc2ccc(F)cc2)C(=O)OCCNC1=O)N[C@H](CO)Cc1ccccc1
    0%	-14%	18µM*	nt	21µM*
C[C@@H]1COC(=O)[C@@H](CC(=O)OC(C)(C)C)C/C=C\C[C@@H](CC(=O)N[C@@H](CO)Cc2ccccc2)C(=O)N1
    0%	9%	?	nt	?
CC(C)(C)OC(=O)C[C@@H]1C/C=C\C[C@H](CC(=O)N[C@@H](CO)Cc2ccccc2)C(=O)N[C@H](C(C)(C)C)COC1=O
    1%	7%	18µM*	nt	21µM*
CC(C)(C)OC(=O)C[C@H]1C/C=C\C[C@H](CC(=O)N[C@H](CO)Cc2ccccc2)C(=O)N[C@@H](Cc2ccccc2)COC1=O
    -2%	8%	15µM*	nt	16µM*

# Only miR-21 reporter and uPA generation, for some of the entries so far:
canonical_smiles	miR-21 reporter	uPA generation
CC(O)CNc1nc2c(c(=O)n(C)c(=O)n2C)n1C/C=C/c1ccccc1 (stereo not drawn)	14%	-7%
Cn1c(=O)c2c(nc(NCCCO)n2C/C=C/c2ccccc2)n(C)c1=O	4%	5%
CCCCC(OC(=O)CN1C(=O)COc2ccccc21)C(=O)NC1CCCCC1 (stereo not drawn)	-3%	1%
S=C(Cc1cccnc1)N1CCOCC1	-5%	-5%
O=C(C[C@@H]1C/C=C\C[C@@H](Cc2ccc(F)cc2)C(=O)OCCNC1=O)N[C@H](CO)Cc1ccccc1	nt	-14%
C[C@@H]1COC(=O)[C@@H](CC(=O)OC(C)(C)C)C/C=C\C[C@@H](CC(=O)N[C@@H](CO)Cc2ccccc2)C(=O)N1	nt	9%
